## AlphaSeq binding of Ab-14 heavy chain variants to a spike HR2 peptide

Target peptide (SARS-CoV-2 spike, HR2 region): PDVDLGDISGINAS

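The starting antibody came from a phage panning campaign against this peptide. Variants in AAYL49 differ from the parent at up to three CDR positions; double and triple changes were sampled at random. Affinity was read by AlphaSeq, a pooled yeast mating assay with surface-displayed partners. The frequency of each diploid, read from paired DNA barcodes, reflects how well the two displayed proteins bind. Scores were corrected for input abundance and mapped to Kd with protein pairs of known affinity run in the same pool. The assay was run in three technical replicates.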

Parent scFv Ab-14: VH joined to VL by three GGGGS repeats. Changes lie in the heavy chain CDRs alone.
VH: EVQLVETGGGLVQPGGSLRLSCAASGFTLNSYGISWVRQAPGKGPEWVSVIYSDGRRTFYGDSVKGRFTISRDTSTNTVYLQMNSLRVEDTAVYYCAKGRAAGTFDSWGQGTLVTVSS
VL: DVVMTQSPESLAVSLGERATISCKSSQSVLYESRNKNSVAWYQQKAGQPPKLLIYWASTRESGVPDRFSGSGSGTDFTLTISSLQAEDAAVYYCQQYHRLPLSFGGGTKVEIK

The parent's heavy chain CDRs are GFTLNSYGIS, VIYSDGRRTFYGDSVK, GRAAGTFDS; each variant's own CDRs replace them letter for letter. Affinities are written as log10 Kd with Kd in nM; a lower number is a better binder. The mean shown is taken over the replicates in which the pair was detected. A pair that was not seen in any replicate is written "no signal"; this usually means weak binding, but a binder can also be missed.

CDR-H1,CDR-H2,CDR-H3,"mean, log10 nM",replicates with signal
GFTLNSYGIC,VIYSDGRNTFQGDSVK,GRAAGTFDS,no signal,0 of 3
GFTLNSYGIS,VIDSDGRRTYYGDSVK,GRAAGTFTS,no signal,0 of 3
GFTLNSYGIS,VIYSDGRRTFYVDSVK,GRAAGSFHS,2.86,1 of 3
GFTLNSYGIS,VIYSDGRNTFYGDSVK,GRAAGWFDS,no signal,0 of 3
GFTLNSYGIS,VIYSDRRRTKYGDSVK,GRAQGTFDS,no signal,0 of 3
GFTLNSNGIS,VIPSDGRRTFYGDSVK,GRAAGAFDS,no signal,0 of 3
GFTLNSYGIS,VGYSDGRSTFYGDSVK,GRAAGTIDS,no signal,0 of 3
GFTTNSYGIS,VIYSDGTRTFHGDSVK,GRAAGTFDS,no signal,0 of 3
GFTLESYGIS,VIYSDHRRTCYGDSVK,GRAAGTFDS,3.03,1 of 3
GFTLNSYGIS,VIYSDGKRTFYGDSVK,RRSAGTFDS,no signal,0 of 3
GFTLDSYGIS,VIYSDGRRTFYGDSVK,GRAAGTALS,-0.34,3 of 3
GFTLNSYGIS,VIYRDGRRTFYGDSVR,GRAIGTFDS,no signal,0 of 3
GFNLNSYDIS,VIYSDGRRTFYGDRVK,GRAAGTFDS,no signal,0 of 3
GFTLNSYNIS,VIWSDGRRTFYGDSVK,GRAAGTGDS,5.11,3 of 3
GFTLNSYGIS,FIYSDGRRIFYKDSVK,GRAAGTFDS,3.86,2 of 3
GFTLNSYGIS,DIYMDGRFTFYGDSVK,GRAAGTFDS,no signal,0 of 3
GFTLNSYGIS,VIYSDGRRTFYGDSVH,DRAAGTGDS,3.32,3 of 3
GFTLDFYGIS,VIYSDGRRTFYGDSVR,GRAAGTFDS,1.33,3 of 3
AFTLISYGIS,VIYSDGRRTFYGDSVK,GRAAGCFDS,4.26,2 of 3
GFTLNSYGIS,VIYSDGRRTFAGDSVV,GRAAGTFDS,4.29,1 of 3
GFTLNSYGFT,VIYSDGRRKFYGDSVK,GRAAGTFDS,3.86,1 of 3
GFRLNSYGIS,VIYSDGCRRFYGDSVK,GRAAGTFDS,no signal,0 of 3
GFTLSSYGIS,VIYSDGRRTFYQDSVK,GRAATTFDS,1.07,3 of 3
DFTLNSYGIS,VEYSDGRRTFYGDSFK,GRAAGTFDS,3.06,1 of 3
GFTLNSYFIS,VIYSMGRRTIYGDSVK,GRAAGTFDS,3.56,1 of 3
GETLNSWEIS,VIYSDGRRTFYGDSVK,GRAAGTFDS,4.79,2 of 3
GFTLNSYGIS,YIYSDGRATFYGDSVK,GRAAGTCDS,no signal,0 of 3
GFTLNSYGIS,VIYSRGRRTFYFDSVK,GAAAGTFDS,no signal,0 of 3
GFTLNSYGIS,VIYSDGRRTFYGKRVK,GRAAGTFDS,4.02,2 of 3
GFTLNSYGIS,VIYSHMRRTFYGDSSK,GRAAGTFDS,no signal,0 of 3
GFTLNFYGIS,VIYSDGRREFYGDSVK,GRAWGTFDS,4.00,1 of 3
GFTLNSYSIV,VIYSDGRRTFYGDSVK,GTAAGTFDS,no signal,0 of 3
HFTLNSYGIS,VIYSDGRRTFYGDSVK,GQAAGNFDS,no signal,0 of 3
GFTLNSYGIS,WIYSDGRRTFDGDSVK,GRAAGTPDS,no signal,0 of 3
GFTLRSYGIS,VIYSDGRRTRYGDSVK,GRAAGTCDS,5.30,2 of 3
GFTLNSYGIS,VIYSDGRRTFYYDSVK,GRAAGTIDS,no signal,0 of 3
GFTLNSYGIL,VIYSDRRRTFYGDSVK,GRAAGTQDS,no signal,0 of 3
GFTLNSYGIS,VIYSDGRRTFYGRSVK,GRAAGTFHR,2.27,3 of 3
WFTLNSYGIS,VIYSDGCRTFYGDSVK,GRAAGTFDS,3.13,3 of 3
GFTLNSYGRS,VIYSDGRRTFYGDSVK,GRTAGTFLS,no signal,0 of 3
GFTLNWYGIS,VEYSDGRRTFYGDSVK,GEAAGTFDS,5.21,3 of 3
GFTLNSYGIS,AIYSDGMRTFYVDSVK,GRAAGTFDS,no signal,0 of 3
GFTLSSYSIS,VIYSDGRRTFYGDQVK,GRAAGTFDS,no signal,0 of 3
GFTLNSYGIG,VIYSDGRRTFYGDSVP,GRALGTFDS,no signal,0 of 3
GFTLNSYGIS,VIYSDGRRTFYYDMVK,GCAAGTFDS,no signal,0 of 3
NFTLNSYGIS,VIYSDGRRTFYGDSVK,GAAAMTFDS,no signal,0 of 3
GFTLNSYGIA,VIYSDGCRTFYGASVK,GRAAGTFDS,6.21,1 of 3
GFTLNSFGMS,VIYSDGRRTFYGKSVK,GRAAGTFDS,3.05,1 of 3
GFTLNSYGCS,VIYSDGWRTFYGDSVK,GRAAGTADS,4.97,2 of 3
GFTLNSHGIS,LIYSDGQRTFYGDSVK,GRAAGTFDS,no signal,0 of 3
GFTSNSYGIS,VIYSDGRRTFYWDSVN,GRAAGTFDS,no signal,0 of 3
GFTKNSYGIS,VIYSDGRRNFYGASVK,GRAAGTFDS,2.94,1 of 3
GFTLNSYYIS,VIYSDRRRTFYGDSVK,GRAAGTFDS,3.55,1 of 3
GFALGSYGIS,PIYSDGRRTFYGDSVK,GRAAGTFDS,2.49,1 of 3
GFTLISYGIS,KIYSDGRRTFYGDSVK,CRAAGTFDS,no signal,0 of 3
CFTLNSYGIS,VIYSDGRRTFYGDSVK,GRAAVTADS,no signal,0 of 3
GFTLNSYGIS,VIYSDGAHCFYGDSVK,GRAAGTFDS,no signal,0 of 3
GFTLNSYGIS,VIISDGRRCFYGDSVK,GRAAGTFDK,3.04,1 of 3
GFTLNSYGIS,VIYSKGRRTFYGDSWK,GRAAGTFDR,no signal,0 of 3
GFTLNSRGKS,VIYSDARRTFYGDSVK,GRAAGTFDS,no signal,0 of 3
GFTLNSYGIS,VIYSHGCRTFRGDSVK,GRAAGTFDS,4.69,2 of 3
GFTLYSYGIS,VIYSDGRRTFYGDSVK,GRAAATFDS,3.43,1 of 3
GFTLNSYGIS,TIHYDGRRTFYGDSVK,GRAAGTFDS,5.11,1 of 3
GFTLNSYDIS,VIYSDGRRYFYGDSVK,GRAAGKFDS,no signal,0 of 3
GFTLNSYGIS,VIYVDGRRTFYGDSVK,GDAWGTFDS,no signal,0 of 3
GNTLNSYGIS,TIYSDGRRTFYGDSVK,GRAAGTYDS,no signal,0 of 3
GFTLNSYGIS,VIYSDGRRTAYGDQFK,GRAAGTFDS,0.13,3 of 3
GFTLNSYGIS,VIYSDGFYTFYGDSVK,GRGAGTFDS,no signal,0 of 3
GFTLNSYGIS,VIVRDGRRTFPGDSVK,GRAAGTFDS,no signal,0 of 3
GFTLNQYGQS,VIYSDGRRTFYGDSVK,GRAAGYFDS,no signal,0 of 3
GFTLNSYGIS,VIYSDDQRTFYGDSVK,GRAAGTFDS,no signal,0 of 3

Extract of 4 entries:

| CDR-H1 | CDR-H2 | CDR-H3 | mean, log10 nM | replicates with signal |
|---|---|---|---|---|
| GFTLNSHGIS | LIYSDGQRTFYGDSVK | GRAAGTFDS | no signal | 0 of 3 |
| GFTLNSYGIS | VIYSDGFYTFYGDSVK | GRGAGTFDS | no signal | 0 of 3 |
| GFTLNSYGIS | VIYSDGRRTFAGDSVV | GRAAGTFDS | 4.29 | 1 of 3 |
| CFTLNSYGIS | VIYSDGRRTFYGDSVK | GRAAVTADS | no signal | 0 of 3 |

Three control strains display no target. For library AAYL49, 15% of the pairings with them gave a signal, with a median of 4.06 and one signal in twenty below 2.83, so weak values seen in few replicates may be background. In this assay the parent's reference entry averaged 0.65; its copy inside this library read 4.11 (one replicate of three).

Source: Engelhart et al. 2022 (doi:10.1038/s41597-022-01779-4), MIT Lincoln Laboratory and A-Alpha Bio; data file from the FLAb repository.